Laboratory results published in paper PMC5681660, “Reduced hepatitis B and D viral entry using clinically applied drugs as novel inhibitors of the bile acid transporter NTCP” (Scientific Reports, 2017).

Chains of the proteins cited; added tags and fusions are not shown.
UniProt Q14973, whole entry: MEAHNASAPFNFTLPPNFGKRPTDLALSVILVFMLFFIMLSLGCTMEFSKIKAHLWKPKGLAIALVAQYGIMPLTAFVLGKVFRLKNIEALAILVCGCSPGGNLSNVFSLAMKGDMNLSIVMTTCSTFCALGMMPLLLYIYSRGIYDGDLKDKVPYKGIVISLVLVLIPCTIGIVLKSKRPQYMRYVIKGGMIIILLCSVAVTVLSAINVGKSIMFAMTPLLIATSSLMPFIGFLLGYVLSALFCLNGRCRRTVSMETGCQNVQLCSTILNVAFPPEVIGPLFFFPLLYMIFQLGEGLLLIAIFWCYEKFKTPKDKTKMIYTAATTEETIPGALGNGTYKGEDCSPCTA

Tests used:
human NTCP [1] = target: T1, human NTCP (Homo sapiens, UniProt Q14973); experiment: Screening fluorescent competitive Myrcludex B-FITC binding assay (96-well, 10 µM drug); details: U2OS-HA-hNTCP cells
human NTCP [2] = target: T1, human NTCP; experiment: Screening taurocholate uptake assay (96-well, [14C]taurocholate, 10 µM drug); details: U2OS-HA-hNTCP cells

`COc1cc(-c2ccc(/N=N/c3ccc4c(S(=O)(=O)O)cc(S(=O)(=O)O)c(N)c4c3O)c(OC)c2)ccc1/N=N/c1ccc2c(S(=O)(=O)O)cc(S(=O)(=O)O)c(N)c2c1O` was tested. Which “%NTCP binding” value (human NTCP [1]) did it give?
The value was -1.33%.

What about the “%NTCP activity” value (human NTCP [2]) of the same compound?
Its value is 8.529%.
